# ALDH1A1 inh = ALDH1A1 (human) enzyme inhibition. P00352. Purified ALDH1A1, NADH fluorescence, propionaldehyde substrate. Potency, µM (titrated, usually from 75.3 µM), usual class: inhibitors. hit rate 7.3% among 220,000. AID 1030; active = well fitted inhibition curve with a large enough effect, not every such curve was filed as active; inconclusive = small, poorly fitted or top-dose-only effect, or another doubt; inactive = no such curve, though single readings can be large or run the other way
# Lamin A splicing = changes lamin A minigene splicing in HeLa cells; HeLa LMNA splicing GFP/RFP minigene ratio, 48 h; Potency, µM (series often up to 46.1 µM), hits mostly inhibitors; hit rate 0.01% among 200,000; AID 1487; active = well fitted inhibition curve with a large enough effect in the signal ratio, with a control signal flat, not every such curve was filed as active; inconclusive = small, poorly fitted or top-dose-only effect, or effect the other way, or a change in a side signal; the % refers to the signal ratio
#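 S3 HeLa cells stably expressing lamin A-EGFP splicing minigene plus DsRed2, 600 cells/well, 48 h compound exposure at 37C. Laser-scanning cytometry; analysed as GFP (500-530 nm)/RFP (575-640 nm) total intensity ratio; 0.5% DMSO vehicle.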
# miR-21 FLuc = miR-21 reporter, rising signal; HeLa miR-21 FLuc reporter, luciferase, 48 h; Potency, µM (titrated, usually from 38.3 µM); AID 2288; 340,000 tested, under 10 active; active = well fitted rising curve with a large enough effect; inconclusive = small, poorly fitted or top-dose-only effect; inactive = no such curve, though single readings can be large or run the other way;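 further: miR-21 action dims this reporter so a rising signal means less miR-21 action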
#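 HeLa miR-21-FLuc reporter line, endogenous miR-21; 2000 cells/well in DMEM/10% FBS; compound titration up to ~40uM final, 48 h, 37 degree Celsius; luciferase detection reagent, 15 min lysis, CCD luminescence.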
# JMJD2E inh = JMJD2E (human) inhibition. AID 2147. JMJD2E catalytic domain, FDH-coupled NADH fluorescence (FDH is formaldehyde dehydrogenase). hit rate 1.6% among 230,000. B2RXH2. Potency, µM (highest dose often 57.1 µM), hits mostly inhibitors; active = well fitted inhibition curve with a large enough effect, not every such curve was filed as active; inconclusive = small, poorly fitted or top-dose-only effect, or another doubt; inactive = no such curve, though single readings can be large or run the other way; note: nearly all actives have a fitted effect of over 50% in size
# G9a inh = inhibitors of human histone lysine methyltransferase G9a; hit rate 8.8% among 350,000; G9a H3K9 monomethylation, AlphaScreen, 2 h; Q96KQ7; Potency, µM (series often up to 102 µM), most hits filed as inhibitors; note: nearly all actives have a fitted effect of over 75% in size
#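 AlphaScreen read-out: biotin-H3K9 peptide (500 nM) methylation by 20 nM enzyme with 20 uM SAM, 2 h at room temperature after 15 min compound preincubation; anti-monomethyl H3K9 antibody plus donor/acceptor beads, 10 min dark.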
# Sfp PPTase inh = blocks B. subtilis Sfp PPTase activity; Q9F4F7; Biochemical Sfp PPTase activity, qHTS; Potency, µM, usual class: inhibitors; hit rate 3.5% among 310,000; AID 1490;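 note: the enzyme is Sfp with the accession as filed and its product quenches rhodamine fluorescence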
#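 Sfp 15 nM + cpd, 15 min RT; start w/ rhodamine-CoA 5 uM, BHQ-2-YbbR 12.5 uM (final); 50 mM Hepes pH 7.6, 10 mM MgCl2, 0.01% NP-40, 0.01% BSA; read 525/598 nm at 0 and 30 min.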
# Numbers stand for hits; i = inactive; ? = inconclusive; nt = no result given; [ ] = remark or other dose. Sampled rows, rich in hits. Any-hit rate of the full collection: about 13%. Unless noted, calls come from the whole dose curve; as a rule, active = well fitted curve in the direction sought with a large enough effect; inconclusive = small, poorly fitted or top-dose-only effect, or another doubt; inactive = no such curve, though single readings can be large; an effect the other way counts as inactive or inconclusive.
SMILES,ALDH1A1 inh,Lamin A splicing,miR-21 FLuc,JMJD2E inh,G9a inh,Sfp PPTase inh
O=C(c1cnccn1)N1CCC2(CC1)CCN(c1ncccn1)CC2,i,nt,nt,nt,i[12.7 µM],i
CCc1ccc(N(C(=O)c2snc(C(N)=O)c2N)C(C(=O)NC2CCCC2)c2ccncc2)cc1 (stereo not drawn),nt,nt,i,nt,i,i
O=C(Nc1nnc(-c2ccc(F)cc2)s1)c1ccco1,nt,nt,i,nt,i,i
O=C(CCNC(=O)c1ccccc1Cl)Nc1nc2ccc(F)cc2s1,nt,nt,nt,nt,i[12.7 µM],nt
O=C(Nc1n[nH]c(=S)s1)c1ccco1,nt,nt,i,nt,1.4µM,56µM
O=C(Nc1nc2ccccc2c(=O)s1)c1ccco1,nt,nt,i,i,71µM,?
O=C(Nc1nc2ccccc2c(=O)s1)c1ccc(F)cc1Cl,nt,nt,i,nt,71µM,i
Cc1cccc(NC(=O)CSc2nnc3ccc(-c4ccccn4)nn23)c1,nt,nt,nt,nt,i,nt
O=C(NCc1ccc(Cl)cc1)C(=O)NCC(c1cccnc1)N1CCN(c2ccccc2)CC1 (stereo not drawn),nt,i,i,nt,i,nt
COc1ccc(N2CCN(C(=O)CSc3ccccc3)CC2)cc1,?,?,i,i,?,i
COc1ccc(N2CCN(C(=O)COC(=O)Cc3cccc(OC)c3)CC2)cc1,nt,nt,nt,nt,40µM,nt
COc1ccc(N2CCN(C(=O)COC(=O)Cc3c(F)cccc3Cl)CC2)cc1,nt,nt,nt,nt,50µM,nt
COc1ccc(N2CCN(C(=O)COC(=O)CSc3ccccc3)CC2)cc1,nt,nt,nt,nt,16µM,nt
Cc1ccc(S(=O)(=O)CCC(=O)OC(C)C(=O)Nc2ccc(N3CCOCC3)cc2)cc1 (stereo not drawn),nt,nt,nt,nt,i[12.7 µM],nt
COc1cccc(CC(=O)OCC(=O)N2CCN(c3ccc(F)cc3)CC2)c1,nt,nt,i,nt,nt,i
CCOC(=O)C1CCN(C(=O)Cc2c(F)cccc2Cl)CC1,i,i,i,i,i,i
COc1cccc(CC(=O)OC(C)C(=O)Nc2ccc(N3CCOCC3)cc2)c1 (stereo not drawn),nt,nt,nt,nt,50µM,nt
CC1CCN(S(=O)(=O)c2ccc3c(c2)c(=O)c(C(=O)N2CCN(c4cccc(Cl)c4)CC2)cn3C)CC1,nt,nt,i,nt,i,nt
CC(C(=O)NCc1ccccc1)N1CCN(c2ccc(F)cc2)CC1 (stereo not drawn),nt,nt,i,nt,i[2.33 µM],i
COc1ccc(N2CCN(C(=O)COC(=O)COc3cc(C)cc(C)c3)CC2)cc1,nt,nt,nt,nt,32µM,nt
COc1ccc(N2CCN(C(=O)CSc3ccccc3N)CC2)cc1,25µM,?,i,i,?,i
CCC(=O)c1ccc(OCC(=O)OCC(=O)N2CCN(c3ccc(OC)cc3)CC2)cc1,nt,nt,nt,nt,i[2.33 µM],nt
COc1ccc(N2CCN(C(=O)CSc3nc(C)cs3)CC2)cc1,nt,nt,nt,nt,45µM,nt
COc1ccc(N2CCN(C(=O)CSc3nnc(NC(=O)C4CC4)s3)CC2)cc1,i,?,i,i,?,i
CCCCOc1ccc(C(=O)N(CC)CC(=O)NCc2cccs2)cc1,nt,nt,i,nt,nt,i
SMILES,ALDH1A1 inh,Lamin A splicing,miR-21 FLuc,JMJD2E inh,G9a inh,Sfp PPTase inh
Oc1ccc(Cc2cc(Cl)cc(Cl)c2O)cc1Cl,i[13.5 µM],nt,nt,nt,nt,nt
Clc1ccc(OCc2nc(-c3ccc(-n4cccc4)cc3)no2)cc1,nt,nt,i,nt,i,nt
CC(C)C(=O)N(c1ccc(F)cc1)C1C=CS(=O)(=O)C1 (stereo not drawn),28µM,i,i,i,i,i
COc1ccc(N(C(=O)Cc2cccs2)C2C=CS(=O)(=O)C2)cc1 (stereo not drawn),28µM,i,i,i,i,i
COc1cccc(CNC(=O)CSc2nc3ccc(C)cc3[nH]2)c1,nt,nt,i,nt,i,i
CCOC(=O)C1=C(SCC)c2cc3c(n2C1=O)CCCC3,?,?,i,i,7.9µM,i
COc1ccc(CNC(=O)CCc2c(C)nc3c(c(C)nn3-c3ccccc3)c2C)cc1,nt,nt,i,nt,i,nt
Cc1ccc(CCNC(=O)c2cc3n(n2)CCCN(Cc2ccc(C)cc2)C3=O)cc1,nt,i,i,nt,i,nt
C=CCn1c(SCC(N)=O)nnc1-c1cccc(Br)c1,i,i,i,i,i,i
C=CCn1c(SCC(C)=O)nnc1-c1cc(-c2ccccc2)sc1N,?,?,i,?,11µM,i
Nc1cc(C(=O)OCC(=O)NNC(=O)c2cccs2)ccc1Cl,nt,nt,nt,nt,i[0.501 µM],nt
O=C1NC(c2ccccc2)=C(c2ccc3ccccc3n2)C(c2ccncc2)N1 (stereo not drawn),i,i,i,i,50µM,i
Cc1nnc(C)c2c(C)n(-c3ccc(Cl)c(N)c3)c(C)c12,nt,nt,i,nt,56µM,i
CCCCN1CCC[C@H]1CNC(=O)c1cc(C#N)c2ccccc2c1OC,nt,nt,nt,nt,nt,i
CNc1nc(Sc2cccc(C(F)(F)F)c2)cc(C(F)(F)F)n1,i,?,i,?,i,i
